# Target: ATRIA (Cavia porcellus, UniProt H0W3H1)
# Sequences of proteins named here, by UniProt entry; tags and fusion partners are left off. Residues count along the entry.
# UniProt H0W3H1, 1-470: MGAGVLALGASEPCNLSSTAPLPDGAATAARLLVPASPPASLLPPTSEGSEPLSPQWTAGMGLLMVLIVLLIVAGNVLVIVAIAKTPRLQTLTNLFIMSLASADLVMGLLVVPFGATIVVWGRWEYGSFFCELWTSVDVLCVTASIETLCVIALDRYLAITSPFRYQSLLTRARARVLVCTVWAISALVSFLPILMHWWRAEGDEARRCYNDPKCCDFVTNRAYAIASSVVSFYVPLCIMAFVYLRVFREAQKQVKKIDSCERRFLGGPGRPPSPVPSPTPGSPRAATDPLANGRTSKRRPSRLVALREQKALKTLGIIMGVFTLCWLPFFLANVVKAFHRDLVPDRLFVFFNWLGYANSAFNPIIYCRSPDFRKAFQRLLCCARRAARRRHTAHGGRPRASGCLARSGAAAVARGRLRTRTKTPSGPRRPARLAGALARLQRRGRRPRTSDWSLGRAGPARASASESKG
# Assay: In vitro potency (pA2), beta-blocking, atria
# Conditions: Table 3
# Protocol: The in vitro potency (pA2), in vivo potency and duration of action (DOA) of the compounds of the present invention are recorded in Tables 2 to 4. These pharmacological activities were determined using the methods described in U.S. patent 4,582,855 issued Apr.
structure (smiles),measurement,value
Cc1cc(O)c(O)cc1C(=O)OCC(O)CNC(C)(C)CNC(=O)C12CC3CC(CC(C3)C1)C2 (stereo not shown),pA2 ATRIA,6.1

# Source: US4966914A, “Oculoselective beta-blockers as antiglaucoma agents” (E. I. Du Pont de Nemours and Company, priority 1988, dated 1990)
